Measurements as given in PMC9954134 (2023).

B1: wild-type CD44 standard form (wt CD44) [not stated] / iASPP (in lysates of cells transfected with CD44 constructs) [not stated] (parent complex)
chain 1: QIDLNITCRFAGVFHVEKNGRYSISRTEAADLCKAFNSTLPTMAQMEKALSIGFETCRYGFIEGHVVIPRIHPNSICAANNTGVYILTSNTSQYDTYCFNASAPPEEDCTSVTDLPNAFDGPITITIVNRDGTRYVQKGEYRTNPEDIYPSNPTDDDVSSGSSSERSSTSGGYIFYTFSTVHPIPDEDSPWITDSTDRIPATRDQDTFHPSGGSHTTHGSESDGHSHGSQEGGANTTSGPIRTPQIPEWLIILASLLALALILAVCIAVNSRRRCGQKKKLVINSGNGAVEDRKPSGLNGEASKSQEMVHLVNKESSETPDQFMTADETRNLQNVDMKIGV
chain 2: MDSEAFQSARDFLDMNFQSLAMKHMDLKQMELDTAAAKVDELTKQLESLWSDSPAPPGPQAGPPSRPPRYSSSSIPEPFGSRGSPRKAATDGADTPFGRSESAPTLHPYSPLSPKGRPSSPRTPLYLQPDAYGSLDRATSPRPRAFDGAGSSLGRAPSPRPGPGPLRQQGPPTPFDFLGRAGSPRGSPLAEGPQAFFPERGPSPRPPATAYDAPASAFGSSLLGSGGSAFAPPLRAQDDLTLRRRPPKAWNESDLDVAYEKKPSQTASYERLDVFARPASPSLQLLPWRESSLDGLGGTGKDNLTSATLPRNYKVSPLASDRRSDAGSYRRSLGSAGPSGTLPRSWQPVSRIPMPPSSPQPRGAPRQRPIPLSMIFKLQNAFWEHGASRAMLPGSPLFTRAPPPKLQPQPQPQPQPQSQPQPQLPPQPQTQPQTPTPAPQHPQQTWPPVNEGPPKPPTELEPEPEIEGLLTPVLEAGDVDEGPVARPLSPTRLQPALPPEAQSVPELEEVARVLAEIPRPLKRRGSMEQAPAVALPPTHKKQYQQIISRLFHRHGGPGPGGPEPELSPITEGSEARAGPPAPAPPAPIPPPAPSQSSPPEQPQSMEMRSVLRKAGSPRKARRARLNPLVLLLDAALTGELEVVQQAVKEMNDPSQPNEEGITALHNAICGANYSIVDFLITAGANVNSPDSHGWTPLHCAASCNDTVICMALVQHGAAIFATTLSDGATAFEKCDPYREGYADCATYLADVEQSMGLMNSGAVYALWDYSAEFGDELSFREGESVTVLRRDGPEETDWWWAALHGQEGYVPRNYFGLFPRVKPQRSKV

Variants of: B1
Test: co-immunoprecipitation (IP: iASPP, IB: CD44), densitometry; MCF-7 cells, transient transfection; parent: 1; read off a plot

Variant | response
chain 1 QIDLNITCRFAGVFHVEKNGRYSISRTEAADLCKAFNSTLPTMAQMEKALSIGFETCRYGFIEGHVVIPRIHPNSICAANNTGVYILTSNTSQYDTYCFNASAPPEEDCTSVTDLPNAFDGPITITIVNRDGTRYVQKGEYRTNPEDIYPSNPTDDDVSSGSSSERSSTSGGYIFYTFSTVHPIPDEDSPWITDSTDRIPATRDQDTFHPSGGSHTTHGSESDGHSHGSQEGGANTTSGPIRTPQIPEWLIILASLLALALILAVCIAVNSRRRCGQKKKLVINSGNGAVEDINPSGLNGEASKSQEMVHLVNKESSETPDQFMTADETRNLQNVDMKIGV [chain 1 R293I, chain 1 K294N] | ~0.2
chain 1 QIDLNITCRFAGVFHVEKNGRYSISRTEAADLCKAFNSTLPTMAQMEKALSIGFETCRYGFIEGHVVIPRIHPNSICAANNTGVYILTSNTSQYDTYCFNASAPPEEDCTSVTDLPNAFDGPITITIVNRDGTRYVQKGEYRTNPEDIYPSNPTDDDVSSGSSSERSSTSGGYIFYTFSTVHPIPDEDSPWITDSTDRIPATRDQDTFHPSGGSHTTHGSESDGHSHGSQEGGANTTSGPIRTPQIPEWLIILASLLALALILAVCIAVNSAAACGQAAALVINSGNGAVEDRKPSGLNGEASKSQEMVHLVNKESSETPDQFMTADETRNLQNVDMKIGV [chain 1 R272A, chain 1 R273A, chain 1 R274A, chain 1 K278A, chain 1 K279A, chain 1 K280A] | ~0.18
chain 1 QIDLNITCRFAGVFHVEKNGRYSISRTEAADLCKAFNSTLPTMAQMEKALSIGFETCRYGFIEGHVVIPRIHPNSICAANNTGVYILTSNTSQYDTYCFNASAPPEEDCTSVTDLPNAFDGPITITIVNRDGTRYVQKGEYRTNPEDIYPSNPTDDDVSSGSSSERSSTSGGYIFYTFSTVHPIPDEDSPWITDSTDRIPATRDQDTFHPSGGSHTTHGSESDGHSHGSQEGGANTTSGPIRTPQIPEWLIILASLLALALILAVCIAVNARRRCGQKKKLVINSGNGAVEDRKPSGLNGEASKSQEMVHLVNKESSETPDQFMTADETRNLQNVDMKIGV [chain 1 S271A] | ~0.52

Other lines, results leading:

response | Variant
~1.1 | chain 1 QIDLNITCRFAGVFHVEKNGRYSISRTEAADLCKAFNSTLPTMAQMEKALSIGFETCRYGFIEGHVVIPRIHPNSICAANNTGVYILTSNTSQYDTYCFNASAPPEEDCTSVTDLPNAFDGPITITIVNRDGTRYVQKGEYRTNPEDIYPSNPTDDDVSSGSSSERSSTSGGYIFYTFSTVHPIPDEDSPWITDSTDRIPATRDQDTFHPSGGSHTTHGSESDGHSHGSQEGGANTTSGPIRTPQIPEWLIILASLLALALILAVCIAVNSRRRCGQKKKLVINSGNGAVEDRKPAGLNGEASKSQEMVHLVNKESSETPDQFMTADETRNLQNVDMKIGV [chain 1 S296A]
~0.52 | chain 1 QIDLNITCRFAGVFHVEKNGRYSISRTEAADLCKAFNSTLPTMAQMEKALSIGFETCRYGFIEGHVVIPRIHPNSICAANNTGVYILTSNTSQYDTYCFNASAPPEEDCTSVTDLPNAFDGPITITIVNRDGTRYVQKGEYRTNPEDIYPSNPTDDDVSSGSSSERSSTSGGYIFYTFSTVHPIPDEDSPWITDSTDRIPATRDQDTFHPSGGSHTTHGSESDGHSHGSQEGGANTTSGPIRTPQIPEWLIILASLLALALILAVCIAVNSRRRCGQKKKLVINSGNGAVEDRKPSGLNGEASKAQEMVHLVNKESSETPDQFMTADETRNLQNVDMKIGV [chain 1 S305A]

Variants of: B1
Test: co-immunoprecipitation (IP: iASPP, IB: CD44), densitometry; HEK293 cells, transient transfection; parent: 1.1; read off a plot

response | Variant
~0.6 | chain 1 QIDLNITCRFAGVFHVEKNGRYSISRTEAADLCKAFNSTLPTMAQMEKALSIGFETCRYGFIEGHVVIPRIHPNSICAANNTGVYILTSNTSQYDTYCFNASAPPEEDCTSVTDLPNAFDGPITITIVNRDGTRYVQKGEYRTNPEDIYPSNPTDDDVSSGSSSERSSTSGGYIFYTFSTVHPIPDEDSPWITDSTDRIPATRDQDTFHPSGGSHTTHGSESDGHSHGSQEGGANTTSGPIRTPQIPEWLIILASLLALALILAVCIAVNSRRRCGQKKKLVINSGNGAVEDINPSGLNGEASKSQEMVHLVNKESSETPDQFMTADETRNLQNVDMKIGV [chain 1 R293I, chain 1 K294N]
~2.4 | chain 1 QIDLNITCRFAGVFHVEKNGRYSISRTEAADLCKAFNSTLPTMAQMEKALSIGFETCRYGFIEGHVVIPRIHPNSICAANNTGVYILTSNTSQYDTYCFNASAPPEEDCTSVTDLPNAFDGPITITIVNRDGTRYVQKGEYRTNPEDIYPSNPTDDDVSSGSSSERSSTSGGYIFYTFSTVHPIPDEDSPWITDSTDRIPATRDQDTFHPSGGSHTTHGSESDGHSHGSQEGGANTTSGPIRTPQIPEWLIILASLLALALILAVCIAVNSAAACGQAAALVINSGNGAVEDRKPSGLNGEASKSQEMVHLVNKESSETPDQFMTADETRNLQNVDMKIGV [chain 1 R272A, chain 1 R273A, chain 1 R274A, chain 1 K278A, chain 1 K279A, chain 1 K280A]

Variants of: B1
Test: co-immunoprecipitation (IP: iASPP, IB: CD44), densitometry; HEK293 cells, transient transfection; parent: 0.58; read off a plot

Variant | response
chain 1 QIDLNITCRFAGVFHVEKNGRYSISRTEAADLCKAFNSTLPTMAQMEKALSIGFETCRYGFIEGHVVIPRIHPNSICAANNTGVYILTSNTSQYDTYCFNASAPPEEDCTSVTDLPNAFDGPITITIVNRDGTRYVQKGEYRTNPEDIYPSNPTDDDVSSGSSSERSSTSGGYIFYTFSTVHPIPDEDSPWITDSTDRIPATRDQDTFHPSGGSHTTHGSESDGHSHGSQEGGANTTSGPIRTPQIPEWLIILASLLALALILAVCIAVNSAAACGQAAALVINSGNGAVEDRKPSGLNGEASKSQEMVHLVNKESSETPDQFMTADETRNLQNVDMKIGV [chain 1 R272A, chain 1 R273A, chain 1 R274A, chain 1 K278A, chain 1 K279A, chain 1 K280A] | ~1.7
chain 1 QIDLNITCRFAGVFHVEKNGRYSISRTEAADLCKAFNSTLPTMAQMEKALSIGFETCRYGFIEGHVVIPRIHPNSICAANNTGVYILTSNTSQYDTYCFNASAPPEEDCTSVTDLPNAFDGPITITIVNRDGTRYVQKGEYRTNPEDIYPSNPTDDDVSSGSSSERSSTSGGYIFYTFSTVHPIPDEDSPWITDSTDRIPATRDQDTFHPSGGSHTTHGSESDGHSHGSQEGGANTTSGPIRTPQIPEWLIILASLLALALILAVCIAVNARRRCGQKKKLVINSGNGAVEDRKPSGLNGEASKSQEMVHLVNKESSETPDQFMTADETRNLQNVDMKIGV [chain 1 S271A] | ~0.66

The next lines start with the values.

response | Variant
~0.98 | chain 1 QIDLNITCRFAGVFHVEKNGRYSISRTEAADLCKAFNSTLPTMAQMEKALSIGFETCRYGFIEGHVVIPRIHPNSICAANNTGVYILTSNTSQYDTYCFNASAPPEEDCTSVTDLPNAFDGPITITIVNRDGTRYVQKGEYRTNPEDIYPSNPTDDDVSSGSSSERSSTSGGYIFYTFSTVHPIPDEDSPWITDSTDRIPATRDQDTFHPSGGSHTTHGSESDGHSHGSQEGGANTTSGPIRTPQIPEWLIILASLLALALILAVCIAVNSRRRCGQKKKLVINSGNGAVEDRKPAGLNGEASKSQEMVHLVNKESSETPDQFMTADETRNLQNVDMKIGV [chain 1 S296A]
~0.77 | chain 1 QIDLNITCRFAGVFHVEKNGRYSISRTEAADLCKAFNSTLPTMAQMEKALSIGFETCRYGFIEGHVVIPRIHPNSICAANNTGVYILTSNTSQYDTYCFNASAPPEEDCTSVTDLPNAFDGPITITIVNRDGTRYVQKGEYRTNPEDIYPSNPTDDDVSSGSSSERSSTSGGYIFYTFSTVHPIPDEDSPWITDSTDRIPATRDQDTFHPSGGSHTTHGSESDGHSHGSQEGGANTTSGPIRTPQIPEWLIILASLLALALILAVCIAVNSRRRCGQKKKLVINSGNGAVEDRKPSGLNGEASKAQEMVHLVNKESSETPDQFMTADETRNLQNVDMKIGV [chain 1 S305A]
